Assay results published in ChEMBL document CHEMBL1136157, “Synthesis of 3a,4-dihydro-3H-[1]benzopyrano[4,3-c]isoxazoles, displaying combined 5-HT uptake inhibiting and alpha(2)-adrenoceptor antagonistic activities: a novel series of potential antidepressants” (Bioorg Med Chem Lett, 2003).

Protein sequences, listed by entry. Tags and fused reporters are not part of them.
UniProt P08913, whole entry: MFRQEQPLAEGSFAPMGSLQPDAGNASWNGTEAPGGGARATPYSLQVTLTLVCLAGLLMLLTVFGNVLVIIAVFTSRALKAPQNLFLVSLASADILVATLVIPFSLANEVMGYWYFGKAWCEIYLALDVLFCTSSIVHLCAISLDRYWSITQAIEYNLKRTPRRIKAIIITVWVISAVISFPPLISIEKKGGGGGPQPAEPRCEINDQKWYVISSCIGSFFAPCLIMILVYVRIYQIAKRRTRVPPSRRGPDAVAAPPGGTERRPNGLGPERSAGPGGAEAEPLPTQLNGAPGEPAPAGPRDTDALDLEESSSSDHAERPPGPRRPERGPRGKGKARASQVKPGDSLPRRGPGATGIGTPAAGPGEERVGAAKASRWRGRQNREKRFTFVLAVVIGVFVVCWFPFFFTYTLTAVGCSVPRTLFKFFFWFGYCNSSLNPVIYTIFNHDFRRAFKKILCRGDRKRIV

Biological target: Alpha-2A adrenergic receptor (Homo sapiens, UniProt P08913)
Test: In vitro binding affinity towards human alpha-2A adrenergic receptor using [3H]rauwolscine

Question: Which Ki does the source give for `COc1ccc2c(c1)OCC1C2=NOC1CN1CCN(C/C=C/c2ccccc2)CC1` (stereo unspecified) here?
Answer: 0.5 nM
